Key:
Experiment in all cases: SEC-MALS; Shodex KW-803 column; proteins at 5 mg/mL in 50 mM HEPES pH 7.5, 300 mM NaCl, 0.5 mM TCEP; 0.5 mL/min; receptor domains alone and mixed with FKBP12.6
Settings in all cases: both partners purified
[1] = target: T1, ALK2 (ACVR1) intracellular domain, residues 172-499 (GS and kinase domains) (human, UniProt Q04771 172-499)
T1 construct: ALK2 (ACVR1), human, intracellular residues 172-499 with the GS and kinase domains, cloned into pFB-LIC-Bse; source: Sf9 insect cells (baculovirus), purified (nickel-sepharose, TEV cleavage, SEC); not shown: His6, N-terminal, cleaved
T1 sequence (looked up): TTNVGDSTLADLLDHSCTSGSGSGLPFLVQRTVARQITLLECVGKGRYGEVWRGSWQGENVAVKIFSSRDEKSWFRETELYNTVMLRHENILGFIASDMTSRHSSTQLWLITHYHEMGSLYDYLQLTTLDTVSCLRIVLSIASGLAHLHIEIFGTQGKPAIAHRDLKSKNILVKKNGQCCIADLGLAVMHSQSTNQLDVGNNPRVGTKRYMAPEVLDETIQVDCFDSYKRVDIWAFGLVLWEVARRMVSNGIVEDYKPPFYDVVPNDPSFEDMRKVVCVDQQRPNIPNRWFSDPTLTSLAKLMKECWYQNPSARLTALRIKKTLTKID

[2] = target: T2, ALK5 (TGFBR1) intracellular domain, residues 162-503 (human, UniProt P36897 162-503)
T2 construct: ALK5 (TGFBR1), human, intracellular domain residues 162-503, cloned into pFB-LIC-Bse; source: Sf9 insect cells (baculovirus), purified (nickel-sepharose, TEV cleavage, SEC); not shown: His6, N-terminal, cleaved
T2 sequence (looked up): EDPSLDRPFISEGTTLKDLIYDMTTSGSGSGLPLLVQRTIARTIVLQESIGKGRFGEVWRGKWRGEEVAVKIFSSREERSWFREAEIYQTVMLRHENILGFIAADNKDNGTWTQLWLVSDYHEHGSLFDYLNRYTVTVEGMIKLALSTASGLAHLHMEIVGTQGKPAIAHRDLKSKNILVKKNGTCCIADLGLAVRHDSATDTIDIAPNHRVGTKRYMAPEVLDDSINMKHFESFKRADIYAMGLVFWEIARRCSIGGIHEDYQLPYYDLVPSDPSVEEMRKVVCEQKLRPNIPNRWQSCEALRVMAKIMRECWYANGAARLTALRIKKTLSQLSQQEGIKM

[3] = target: T3, ALK6 (BMPR1B) intracellular domain, residues 168-502 (human, UniProt O00238 168-502)
T3 construct: ALK6 (BMPR1B), human, intracellular domain residues 168-502, cloned into pFB-LIC-Bse; source: Sf9 insect cells (baculovirus), purified (nickel-sepharose, TEV cleavage, SEC); not shown: His6, N-terminal, cleaved
T3 sequence (looked up): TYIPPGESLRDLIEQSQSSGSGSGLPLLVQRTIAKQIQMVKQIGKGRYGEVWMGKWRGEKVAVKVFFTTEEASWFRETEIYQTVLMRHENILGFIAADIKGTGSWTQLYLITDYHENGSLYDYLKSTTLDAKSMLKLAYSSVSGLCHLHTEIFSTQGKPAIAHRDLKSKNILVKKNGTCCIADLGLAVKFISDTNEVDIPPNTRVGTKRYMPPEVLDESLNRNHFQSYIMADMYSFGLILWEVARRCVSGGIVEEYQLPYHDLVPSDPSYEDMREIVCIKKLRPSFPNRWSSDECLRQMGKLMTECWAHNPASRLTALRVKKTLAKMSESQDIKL

Measured: stoichiometry N

B1: FKBP12.6 (FKBP1B), full length, recombinant (natural protein, human, UniProt P68106 1-108, looked up)
chain: MGVEIETISPGDGRTFPKKGQTCVVHYTGMLQNGKKFDSSRDRNKPFKFRIGKQEVIKGFEEGAAQMSLGQRAKLTCTPDVAYGATGHPGVIPPNATLIFDVELLNLE
notes: FKBP12.6 (FKBP1B), human, full length, cloned into pNIC28-Bsa4; 108 amino acids; source: E. coli BL21(DE3)R3-pRARE2, purified (nickel-sepharose, TEV cleavage, SEC); not shown: His6, N-terminal, cleaved
1: all assays above

Source: article PMC7911104, “ALK2 Receptor Kinase Association with FKBP12.6 Is Structurally Conserved with the ALK2-FKBP12 Complex” (Biomedicines, 2021)
